An excerpt weighted towards active compounds, which were near 13% of everything screened.
miR-21 FLuc: raises the signal of a miR-21 reporter | HeLa miR-21 FLuc reporter, luciferase, 48 h | Potency, µM (doses to about 38.3 µM), without a hit: at the top dose reporter change, positive = more light | 340,000 tested, under 10 active | AID 2288; active = well fitted rising curve with a large enough effect; inconclusive = small, poorly fitted or top-dose-only effect; inactive = no such curve, though single readings can be large or run the other way;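 note: % of control where 0% means no effect; miR-21 action dims this reporter so a rising signal means less miR-21 action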
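Compounds were titrated across several concentrations (up to approximately 40 uM) and incubated 48 hours with HeLa miR-21-FLuc reporter cells (miR-21 target sequence downstream of FLuc, endogenous miR-21). Readout was firefly luciferase luminescence after lytic detection reagent.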
G9a inh: blocks human histone lysine methyltransferase G9a | Q96KQ7 | G9a H3K9 monomethylation, AlphaScreen, 2 h | Potency, µM (titrated, usually from 102 µM), inactives show at the highest dose activity, negative = inhibition, actives largely listed as inhibitors | 8.8% of 350,000 active; note: potency is the fitted concentration of half-maximal effect; % is set by controls: 0 for no effect and ±100 for the full control effect; nearly all actives have a fitted effect of over 75% in size
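Signal arises when biotinylated H3K9 peptide, once monomethylated, bridges streptavidin donor and antibody-captured acceptor beads. Enzyme at 20 nM was preincubated 15 min with test compounds; peptide 500 nM and SAM 20 uM then reacted for 2 h.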
ALDH1A1 block: ALDH1A1 (human) enzyme inhibition; Purified ALDH1A1, NADH fluorescence, propionaldehyde substrate; Potency, µM (top dose mostly 75.3 µM), inactives show at the top dose activity, negative = inhibition, hits mostly inhibitors; 7.3% of 220,000 active; AID 1030; active = well fitted inhibition curve with a large enough effect, not every such curve was filed as active; inconclusive = small, poorly fitted or top-dose-only effect, or another doubt; inactive = no such curve, though single readings can be large or run the other way;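 note: potency is the fitted concentration of half-maximal effect; plate controls were no enzyme wells and a reference inhibitor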
Sfp PPTase inh: inhibitors of Bacillus subtilis Sfp phosphopantetheinyl transferase; Q9F4F7; Biochemical Sfp PPTase activity, qHTS; Potency, µM, inactives show max response, negative = inhibition, actives largely listed as inhibitors; hit rate 3.5% among 310,000; AID 1490; active means well fitted inhibition curve with a large enough effect; inconclusive means small, poorly fitted or top-dose-only effect, or another doubt; inactive means no such curve, though single readings can be large or run the other way;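 further: the enzyme is Sfp with the accession as filed and its product quenches rhodamine fluorescence; potency means the concentration at half of the fitted maximal effect; 0% = enzyme reaction without inhibitor and -100% = no enzyme wells; top concentration of the series not given in the record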
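Fluorescence-quenching assay with 15 nM Sfp, 5 uM rhodamine-CoA and 12.5 uM BHQ-2-labelled ybbR peptide in pH 7.6 Hepes/MgCl2 buffer. Enzyme was pre-incubated with compound for 15 min at room temperature. Rate was taken from the 30-min fluorescence change (525/598 nm).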
LMNA splice mod: modulators of lamin A splicing. Potency, µM (top dose mostly 46.1 µM), without a hit: top-dose ratio change, negative = inhibition, usual class: inhibitors. HeLa LMNA splicing GFP/RFP minigene ratio, 48 h. AID 1487. 0.01% of 200,000 active; active = well fitted inhibition curve with a large enough effect in the signal ratio, with a control signal flat, not every such curve was filed as active; inconclusive = small, poorly fitted or top-dose-only effect, or effect the other way, or a change in a side signal; the % refers to the signal ratio; note: potency is the fitted concentration of half-maximal effect; % is set by controls: 0 for no effect and ±100 for the full control effect
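Read-out is the ratio of GFP to DsRed2 object intensity, acquired by 488 nm laser-scanning cytometry on HeLa lamin A-EGFP minigene reporter cells. Compound incubation 48 hrs at 37 °C in Opti-MEM with 2% FBS; DMSO 0.5% final.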
JMJD2E inh: blocks human JMJD2E demethylase activity; JMJD2E catalytic domain, FDH-coupled NADH fluorescence (FDH is formaldehyde dehydrogenase); AID 2147; B2RXH2; 1.6% of 230,000 active; Potency, µM (doses to about 57.1 µM), without a hit: at the top dose activity change, negative = inhibition, hits mostly inhibitors; active = well fitted inhibition curve with a large enough effect, not every such curve was filed as active; inconclusive = small, poorly fitted or top-dose-only effect, or another doubt; inactive = no such curve, though single readings can be large or run the other way;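 note: potency is the fitted concentration of half-maximal effect; 0% = wells with enzyme and -100% = buffer wells without enzyme; nearly all actives have a fitted effect of over 50% in size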
* marks the source's active call; other numbers are inactive results; [ ] = another dose, or the depositor's remark. Unless noted, calls come from the whole dose curve; as a rule, active = well fitted curve in the direction sought with a large enough effect; inconclusive = small, poorly fitted or top-dose-only effect, or another doubt; inactive = no such curve, though single readings can be large; an effect the other way counts as inactive or inconclusive.

The first 3 entries as a preview:
What do the screens show for `O=C(O)C1=C/C(=C(/c2ccccc2)c2cc(C(=O)O)c(O)c3ccccc23)c2ccccc2C1=O`?
ALDH1A1 block: 9.1%[13.5 µM]

How did COCCN1C(=O)/C(=C/c2cc3c(cc2Br)OCO3)NC1=S do in these assays?
miR-21 FLuc: -0.7%; G9a inh: -30.3%; ALDH1A1 block: 0.199µM*; Sfp PPTase inh: -16.2%; LMNA splice mod: inconclusive; JMJD2E inh: -9.8%

What do the screens show for `COc1cc(-c2noc(CSc3nc(-c4ccc(F)cc4)cc(=O)[nH]3)n2)cc(OC)c1OC`?
miR-21 FLuc: -6.7%; G9a inh: -3.4%[59 µM]; LMNA splice mod: 1.9%[46 µM]

Main list, from the first entry:
What do the screens show for `O=C(O)C1=C/C(=C(/c2ccccc2)c2cc(C(=O)O)c(O)c3ccccc23)c2ccccc2C1=O`?
ALDH1A1 block: 9.1%[13.5 µM]

How did COCCN1C(=O)/C(=C/c2cc3c(cc2Br)OCO3)NC1=S do in these assays?
miR-21 FLuc: -0.7%; G9a inh: -30.3%; ALDH1A1 block: 0.199µM*; Sfp PPTase inh: -16.2%; LMNA splice mod: inconclusive; JMJD2E inh: -9.8%

What do the screens show for `COc1cc(-c2noc(CSc3nc(-c4ccc(F)cc4)cc(=O)[nH]3)n2)cc(OC)c1OC`?
miR-21 FLuc: -6.7%; G9a inh: -3.4%[59 µM]; LMNA splice mod: 1.9%[46 µM]

How did Cc1cc(C)c2c(N=NN3CCOCC3)[nH]nc2n1 do in these assays?
miR-21 FLuc: -25.5%; G9a inh: 8.91µM*; ALDH1A1 block: inconclusive; Sfp PPTase inh: 2.0%; LMNA splice mod: inconclusive; JMJD2E inh: -5.1%

How did O=C(CN1c2cccc3cccc(c23)S1(=O)=O)Nc1ccccc1 do in these assays?
miR-21 FLuc: -10.4%; G9a inh: 11.8%; ALDH1A1 block: inconclusive; Sfp PPTase inh: -1.5%; LMNA splice mod: -19.0%[46 µM]; JMJD2E inh: inconclusive

What do the screens show for `CNC(=O)c1ccc(NC(=O)CN2c3cccc4cccc(c34)S2(=O)=O)cc1`?
G9a inh: 44.7µM*

What do the screens show for `CC(C)NC(=O)NC(=O)CN1c2cccc3cccc(c23)S1(=O)=O`?
miR-21 FLuc: -1.4%; G9a inh: 31.6µM*; Sfp PPTase inh: -8.4%

Results for O=C(CSc1nnc(-c2ccco2)o1)N1CCCCC1 ?
miR-21 FLuc: -53.6%; G9a inh: 5.3%; Sfp PPTase inh: 7.4%

How did CCc1cccc(C)c1NC(=O)Cn1ccn(-c2cccc(OC)c2)c(=O)c1=O do in these assays?
miR-21 FLuc: 1.0%; G9a inh: -2.7%[59 µM]; LMNA splice mod: 23.8%[46 µM]

Results for O=C(O)C(=O)/C(=C\c1ccsc1)c1ccc2ccccc2n1 ?
miR-21 FLuc: -66.1%; G9a inh: inconclusive; Sfp PPTase inh: 2.9%

Results for O=C(O)C(=O)/C(=C\c1ccccc1)c1ccc2ccccc2n1 ?
miR-21 FLuc: -55.7%; G9a inh: 79.4µM*; ALDH1A1 block: inconclusive; Sfp PPTase inh: -1.5%; LMNA splice mod: 6.8%; JMJD2E inh: inconclusive

What do the screens show for `O=C(O)C(=O)/C(=C\c1cccc2ccccc12)c1ccc2ccccc2n1`?
miR-21 FLuc: -11.7%; G9a inh: 8.3%; ALDH1A1 block: inconclusive; Sfp PPTase inh: -2.9%; LMNA splice mod: -7.1%; JMJD2E inh: inconclusive

How did O=C(O)C(=O)/C(=C\c1ccc([N+](=O)[O-])cc1)c1ccc2ccccc2n1 do in these assays?
miR-21 FLuc: -53.9%; G9a inh: 35.5µM*; ALDH1A1 block: 11.2µM*; Sfp PPTase inh: 44.7µM*; LMNA splice mod: -8.7%[46 µM]; JMJD2E inh: -21.5%

Results for O=C(Cn1ncc2c3ccccc3n(Cc3cccc(Cl)c3)c2c1=O)NCc1cccs1 ?
miR-21 FLuc: -6.1%; G9a inh: 4.1%[59 µM]

How did Cc1oc2ncnc(N3CCCCC3)c2c1C(=O)Nc1cccc(Cl)c1C do in these assays?
miR-21 FLuc: inconclusive; G9a inh: -4.3%[59 µM]; LMNA splice mod: -2.8%[46 µM]

What do the screens show for `COc1ccccc1-n1cnnc1SCC(=O)c1cc(C)n(Cc2cccs2)c1C`?
miR-21 FLuc: -21.0%; G9a inh: 44.7µM*; ALDH1A1 block: 1.26µM*; Sfp PPTase inh: -15.3%; LMNA splice mod: inconclusive; JMJD2E inh: -21.9%

Results for C=CCn1c(SCC(=O)c2cc(C)n(Cc3cccs3)c2C)nnc1-c1ccncc1 ?
miR-21 FLuc: 0.6%; G9a inh: inconclusive; ALDH1A1 block: inconclusive; Sfp PPTase inh: -10.4%; LMNA splice mod: -8.8%; JMJD2E inh: -19.9%

Results for Cc1cc(C(=O)CSc2nnc(-c3ccccc3F)o2)c(C)n1Cc1cccs1 ?
miR-21 FLuc: -6.8%; G9a inh: -29.6%; ALDH1A1 block: 0.7%; Sfp PPTase inh: 28.2µM*; LMNA splice mod: inconclusive; JMJD2E inh: -4.8%

Assay outcomes from PubChem.
